Measured values reported in ChEMBL document CHEMBL4354804, “Discovery of a New Isoxazole-3-hydroxamate-Based Histone Deacetylase 6 Inhibitor SS-208 with Antitumor Activity in Syngeneic Melanoma Mouse Models” (J Med Chem, 2019).

Organism: Homo sapiens
Assay: Selectivity index, ratio of IC50 for inhibition of human recombinant HDAC1 using fluorogenic HDAC substrate by fluorescence assay to IC50 for inhibition of human recombinant HDAC6 using fluorogenic HDAC substrate by fluorescence assay

CN(Cc1ccc(C(=O)NO)cc1F)CC12CC3CC(CC(C3)C1)C2
Ratio IC50: > 16
